Assay results reported in ChEMBL document CHEMBL1123623, “Synthesis of some [N-(2-haloalkyl)amino]tetralin derivatives as potential irreversible labels for bovine anterior pituitary D2 dopamine receptors” (J Med Chem, 1987).

The chains behind the UniProt entries cited, without tags or fusion partners.
UniProt P20288, whole entry, looked up: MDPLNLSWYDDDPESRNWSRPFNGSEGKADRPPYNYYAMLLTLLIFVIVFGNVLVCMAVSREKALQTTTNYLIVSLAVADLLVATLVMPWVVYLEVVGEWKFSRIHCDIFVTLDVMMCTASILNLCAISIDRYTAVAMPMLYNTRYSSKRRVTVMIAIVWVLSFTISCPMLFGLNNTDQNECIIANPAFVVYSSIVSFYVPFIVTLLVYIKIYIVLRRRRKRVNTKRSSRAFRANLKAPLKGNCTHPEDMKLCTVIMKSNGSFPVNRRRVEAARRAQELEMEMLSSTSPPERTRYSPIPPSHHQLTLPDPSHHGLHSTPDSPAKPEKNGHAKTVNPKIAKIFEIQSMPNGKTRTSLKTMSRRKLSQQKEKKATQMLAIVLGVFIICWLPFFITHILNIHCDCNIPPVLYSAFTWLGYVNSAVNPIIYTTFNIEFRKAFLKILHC

What was measured:
[1] = target: T1, D(2) dopamine receptor (Bos taurus, UniProt P20288); test: Ability to displace [3H]spiperone binding from anterior pituitary Dopamine receptor D2 in the presence of 100 uM GTP
[2] = target: T1, D(2) dopamine receptor; test: Ability to displace [3H]spiperone binding from anterior pituitary Dopamine receptor D2 in the absence of GTP
[3] = target: T1, D(2) dopamine receptor; test: Ability to displace [3H]spiperone binding from anterior pituitary Dopamine receptor D2 in the absence of GTP; NA means inactive

| SMILES | IC50 [1] | IC50 [2] | IC50 [3] |
| --- | --- | --- | --- |
| Oc1cc2c(cc1O)CC(N(CCBr)CCBr)CC2 (stereo not drawn) | 40.7 µM | 22 µM | – |
| Cl.Oc1ccc2c(c1O)CCC(N(CCCl)CCCl)C2 (stereo not drawn) | – | – | Not Active |
